# Values quoted from earlier work as cited in US8389472B2, “Exendin-4 to treat nonalcoholic steatohepatitis and nonalcoholic fatty liver disease” (Amylin Pharmaceuticals, LLC, priority 2005, dated 2013).
# Settings: compared to human amylin; cited from earlier work
structure (smiles),measurement,value
"CC[C@H](C)[C@H](NC(=O)[C@@H]1CCCN1C(=O)CNC(=O)[C@H](Cc1ccccc1)NC(=O)[C@H](CC(N)=O)NC(=O)[C@H](CC(N)=O)NC(=O)[C@H](CO)NC(=O)[C@H](CO)NC(=O)[C@H](Cc1c[nH]cn1)NC(=O)[C@@H](NC(=O)[C@H](CC(C)C)NC(=O)[C@H](Cc1ccccc1)NC(=O)[C@H](CC(N)=O)NC(=O)[C@H](C)NC(=O)[C@H](CC(C)C)NC(=O)[C@H](CCCNC(=N)N)NC(=O)[C@H](CCC(N)=O)NC(=O)[C@@H](NC(=O)[C@H](C)NC(=O)[C@@H]1CSSC[C@H](NC(=O)[C@@H](N)CCCCN)C(=O)N[C@@H](CC(N)=O)C(=O)N[C@@H]([C@@H](C)O)C(=O)N[C@@H](C)C(=O)N[C@@H]([C@@H](C)O)C(=O)N1)[C@@H](C)O)C(C)C)C(=O)N[C@@H](CC(C)C)C(=O)N1CCC[C@H]1C(=O)N1CCC[C@H]1C(=O)N[C@H](C(=O)N[C@@H](CC(N)=O)C(=O)N[C@H](C(=O)NCC(=O)N[C@@H](CO)C(=O)N[C@@H](CC(N)=O)C(=O)N[C@H](C(=O)N[C@@H](Cc1ccc(O)cc1)C(N)=O)[C@@H](C)O)C(C)C)[C@@H](C)O [^25,28,29Pro-h-amylin]",solubility and stability characteristics,more desirable solubility and stability characteristics
